System: GLT-1
Conditions: 50 mg/kg daily IP, last 6 days of extinction training; cocaine self-administering rats; nucleus accumbens core, normalized to calnexin; FIG. 1

Compound: C[C@@H](O)[C@H]1C(=O)N[C@@H]1[C@@H](C)C(=O)N1CCN(C)CC1 [MC-100093]
- GLT-1 expression: increased GLT-1 expression relative to the Coc-Veh group
